Measurements as given in PMC9508196 (Scientific Reports, 2022).

Experiments:
Type in all cases: cell-based
[1] = system: Escherichia coli ATCC 25,922; conditions: E. coli ATCC 25,922; broth microdilution, MHB, 24 h, 37 °C, triplicate
[2] = system: human red blood cells (hRBCs); assay: Hemolysis assay; conditions: peptide concentration that caused 10% hemolysis; 2% (v/v) hRBCs in PBS pH 7.4, 0.98 to 250 μg/ml, 1 h, 37 °C, OD 405 nm, triplicate
[3] = system: Staphylococcus aureus ATCC 25,923; conditions: S. aureus ATCC 25,923; broth microdilution, MHB, 24 h, 37 °C, triplicate

## CC[C@H](C)[C@H](NC(=O)CN)C(=O)NCC(=O)N[C@@H](C)C(=O)N[C@H](C(=O)N[C@@H](CC(C)C)C(=O)N[C@@H](CCCCN)C(=O)N[C@H](C(=O)N[C@@H](CC(C)C)C(=O)N[C@H](C(=O)N[C@H](C(=O)NCC(=O)N[C@@H](CC(C)C)C(=O)N1CCC[C@H]1C(=O)N[C@@H](C)C(=O)N[C@@H](CC(C)C)C(=O)N[C@H](C(=O)N[C@@H](CO)C(=O)N[C@@H](Cc1c[nH]c2ccccc12)C(=O)N[C@H](C(=O)N[C@@H](CCCCN)C(=O)N[C@@H](CCCNC(=N)N)C(=O)N[C@@H](CCCCN)C(=O)N[C@@H](CCCNC(=N)N)C(=O)N[C@@H](CCC(N)=O)C(=O)N[C@@H](CCC(N)=O)C(N)=O)[C@@H](C)CC)[C@@H](C)CC)[C@@H](C)O)[C@@H](C)O)C(C)C)C(C)C [Melittin, reference compound]
[1]
  MIC: 3.91 µg/mL (≈ 1.37 µM)
[2]
  MHC, minimum hemolytic concentration: < 0.98 µg/mL
[3]
  MIC: 15.63 µg/mL (≈ 5.49 µM)

In brackets after ≈: the same amount, converted by molar mass.
